Drawing on PubChem BioAssay AID903 (National Center for Advancing Translational Sciences (NCATS), 2007), this text covers activity change, negative = cytotoxicity for 7 compounds.

This is a selection; strong and weak results do not stand in their true shares. Records with an inconclusive call do not appear. Calls of active or inactive are those of the source. Calls come from the whole dose curve; as a rule, active = well fitted cell-killing curve with a large enough effect; inconclusive = small, poorly fitted or top-dose-only effect; inactive = no such curve, though single readings can be large or run the other way.

This test in a line: qHTS Screen for Compounds that Selectively Target Cancer Cells with p53 Mutations: Cytotoxicity of p53 Null Cells at the Permissive Temperature.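 Note: 0% = DMSO only and -100% = full killing by 100 µM tamoxifen; nearly all actives have a fitted effect of over 55% in size.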 As to conditions: H1299-neo p53 null cells, ATP luminescence, 24 h, 32C; at 46.1 µM (top of the series). The text has this: NIH Chemical Genomics Center [NCGC] NIH Molecular Libraries Screening Centers Network [MLSCN] MLSCN Grant: 1 X01 MH079844-01 Assay Submitter (PI): Dr. SUN, YI, University of Michigan NCGC Assay Overview: Synthetic Lethal Screen for Compounds to Kill Cancer Cells with p53 Mutation. Tumor suppressor gene p53 serves as a major cellular barrier against tumorigenesis. […] The goal of this screening is to identify small molecule probes that selectively kill cancer cells with mutations in p53. This screening was carried out using two lines of H1299 lung cancer cells. The H1299-p53 A138V line express a temperature sensitive p53 mutant (p53ts) in which the mutant p53 protein (A138V) is in the mutant confirmation when grown at 39C (the nonpermissive temperature) and in the wild type conformation when grown at 32C (the permissive temperature). A H1299-neo line (p53 null) grown at both 39C and 32C were used as counter-screens to filter out false positive associated with temperature shifting. The small molecular compounds that selectively target mutant p53-containing cancer cells were selected as candidate probes for further study. A cytotoxicity assay based on the measurement of ATP contents in cells was used in this screen. Concentration-responses of all the compounds in the library collection were determined in qHTS using the cell lines and temperature conditions as above.
NCGC Assay Protocol Summary: Both the H1299-p53A138V and H1299-neo cell lines were provided by Dr.Yi Sun, a PI at the University Michigan. The cells were maintained and cultured at 37C. The resuspended frozen cells were used to plate the cells in the 1536-well assay plates at a density of 600 cells per well in 5 ul medium. The assay plates with the cells were incubated at 37C for 16 to 30 hours before the experiments. The library compounds in DMSO solution were added to the cells in assay plates and incubated 24 hours at 39C (for mutant p53 conformation) or 32C (for normal p53 conformation as control). An ATP_lite assay kit (PerkinElmer) was used to determine the cell viability. Tomaxifen (100uM) was used as the positive control for cell killing. Data were normalized to the controls for basal activity (DMSO only) and 100% killing (100uM tamoxifen). AC50 values were determined from concentration-response data modeled with the standard Hill equation. P53 assay protocol: 1. Reagent; 5 uL H1299-p53A138V or H1299-neo cell cells/well 2. Time; overnight; 37C incubation 3. Compounds; 23 nL; 5.9 nM to 46 uM 4. Controls; 23 nL; Tamoxifen 100 uM 5. Time; 24 hr; 32C incubation 6. Reagent; 3 uL; ATP_Lite reagent 7. Time; 20 min; Room Temperature 8. Detection; Luminescence; Viewlux plate reader Keywords: p53, synthetic lethal, cancer, cell viability, cytotoxicity, H1299 cell line, luminescence, MLSMR, MLSCN, NIH Roadmap, qHTS, NCGC
Background: Quantitative high-throughput screening tests each substance at several concentrations.
With `CCC(C)N(CC(C)C)C(=S)SC(NC(C)=O)C(Cl)(Cl)Cl` (configuration not stated), the activity change, negative = cytotoxicity is inactive: 2.18%.
Turning to `Cc1cc(SC(NC(=O)c2ccccc2)C(Cl)(Cl)Cl)nc(C(C)C)n1` (configuration not stated), the activity change, negative = cytotoxicity was inactive: -6.64%.
`ClCCSc1nnc(-c2cccnc2)o1`: the activity change, negative = cytotoxicity is inactive: -11.2%.
Consider `Cc1c2c(nc3ccccc13)SC(C(Cl)Cl)C2` (configuration not stated), for which the activity change, negative = cytotoxicity was inactive: -0.308%.
Then `CC(C)C(=O)NC(Sc1ccccc1)C(Cl)(Cl)Cl` (configuration not stated), with inactive: -22.5%; and `CN1CCCC(OC(=O)C(c2ccccc2)c2ccccc2)C1` (configuration not stated), with inactive: -9.91%.
On to `Cc1cc(SC(NC(=O)c2ccc(F)cc2)C(Cl)(Cl)Cl)ncn1` (configuration not stated), for which the activity change, negative = cytotoxicity was inactive: 6%.
